The source made the active and inactive calls.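 Rule for the calls: active = a tumor-causing dose value with its tumor site reported for any sex and species group of a rodent or other animal cancer study; inconclusive = only studies judged inadequate by the national testing program; inactive = tested in at least one study, none positive.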 Where a call stands in place of a potency, no number is given.
Assay: DSSTox (CPDBAS) Carcinogenic Potency Database Summary SingleCellCall Results
Conditions: animal chronic carcinogenicity bioassays, CPDB summary call
Source text: The Carcinogenic Potency Database (CPDB) is a unique and widely used international resource of the results of over 6500 chronic, long-term animal cancer tests on over 1500 chemical substances. The CPDB provides easy access to the bioassay literature, with qualitative and quantitative analyses of both positive and negative experiments that have been published over the past 50 years in the general literature and by the National Cancer Institute/National Toxicology Program. The CPDB standardizes the diverse literature of cancer bioassays that vary widely in protocol, histopathological examination and nomenclature, and in the published author's choices of what information to provide in their papers. Results are reported in the CPDB for tests in rats, mice, hamsters, dogs, and nonhuman primates, and are based on the most positive result among all experiments for each sex-species. The DSSTox CPDBAS (all species) file incorporates data from the CPDB Summary Tables for the full list of over 1500 chemical substances tested in at least one species. A summary SingleCellCall, based on experimental bioassay results of one or more species, is provided for the entire DSSTox CPDBAS file (see Source URL).
An assignment of categorical carcinogenic activity based on minimal evidence for or against activity. […] Associated TD50 values and tumor site details for the relevant species/sex experiment supporting this overall CPDBAS SingleSiteCall are provided in the full CPDBAS DSSTox file (see Comment) and the corresponding CPDBAS Species Bioassay in PubChem.

| SMILES | outcome |
| --- | --- |
| O[C@@H]([C@H](O)[C@H](O)CNCCCl)[C@H](O)CNCCCl | inactive |
| COP(=O)(OC)N1CCOCC1 | active |
| C1CN1 | active; inactive |
| NC(=O)Nc1ccc([As](=O)(O)O)cc1 | inactive |
| CCN(N=O)C(=N)N[N+](=O)[O-] | active |
| CN(N=O)C(=N)N[N+](=O)[O-] | active; inactive |
| C[As](=O)(O)O | inactive |
| C[As](C)(C)=O | active; inactive |
| O=C1C2CC=CCC2C(=O)N1SC(Cl)(Cl)C(Cl)Cl (stereo not given) | active; inactive |
| COP(=S)(OC)SCCNC(C)=O | inactive; active |
